Measured values as given in patent publication US9540361B2, “N-substituted azetidine derivatives” (Merck Sharp & Dohme B.V., priority 2010, dated 2017).

The chains behind the UniProt entries cited, without tags or fusion partners.
UniProt P03372, whole entry: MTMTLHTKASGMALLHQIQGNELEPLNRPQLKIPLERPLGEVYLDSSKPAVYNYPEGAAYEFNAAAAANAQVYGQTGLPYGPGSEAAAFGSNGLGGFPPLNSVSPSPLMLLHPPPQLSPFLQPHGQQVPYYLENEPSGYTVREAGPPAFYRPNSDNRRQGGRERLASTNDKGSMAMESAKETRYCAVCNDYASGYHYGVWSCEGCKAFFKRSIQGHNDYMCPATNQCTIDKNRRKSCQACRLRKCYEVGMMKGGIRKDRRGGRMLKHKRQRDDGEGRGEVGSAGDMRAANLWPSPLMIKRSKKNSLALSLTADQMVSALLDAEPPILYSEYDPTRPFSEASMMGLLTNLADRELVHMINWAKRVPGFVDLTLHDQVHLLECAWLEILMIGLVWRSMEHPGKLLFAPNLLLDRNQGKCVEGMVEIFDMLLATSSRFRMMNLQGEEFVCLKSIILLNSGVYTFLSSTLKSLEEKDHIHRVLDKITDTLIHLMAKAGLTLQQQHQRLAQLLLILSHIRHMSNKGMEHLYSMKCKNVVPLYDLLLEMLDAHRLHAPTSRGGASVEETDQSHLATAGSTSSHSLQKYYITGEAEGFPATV

Tests used:
[1] = biological target: human estrogen receptor α (hERα) (Homo sapiens, UniProt P03372); test: antagonistic activity in CHO cells co-transfected with hERα, rat oxytocin promoter and luciferase reporter gene; assay type: cell-based; details: antagonism of 17β-estradiol-induced transactivation, CHO-hERα-RO-LUC
Procedure: The antagonistic activity of compounds on the estrogen receptors was determined in an in vitro bioassay with recombinant Chinese Hamster Ovary (CHO) cells stably co-transfected with the human estrogen receptor α (hERα), the rat oxytocin promoter (RO) and the luciferase reporter gene (LUC). The potency of a test compound to antagonize the transactivation of the enzyme luciferase by 17β-estradiol and mediated via the estrogen receptors hERα is expressed as IC50 in mol/l and/or as pIC50 (−log(IC50)) and/or as percentage (%) relative to the IC50 of the standard anti-estrogen ICI 164.384 (potency test compound=(IC50 ICI 164,384/IC50 test compound)×100%). The antagonistic efficacy, i.e. the amount of maximal inhibition of the 17β-estradiol activated receptor by a compound, is expressed as fraction relative to the maximal inhibition as induced by the standard anti-estrogen ICI 164,384 (efficacy test compound=(maximal inhibition test compound/maximal inhibition ICI 164,384)). A more detailed description of the methodology can be found in De Gooyer et al., Steroids, 68 (2003) 21-30.

[2] = biological target: T1, estrogen receptor alpha (Homo sapiens, UniProt P03372); test: ERα downregulation assay in T47D breast cancer cells (ERα ELISA); assay type: cell-based; details: downregulation of ERα relative to fulvestrant (100%), 1E-5 M, 24 hours, negative = upregulation
T1 construct: endogenous in cells; host or cells: T47D human breast cancer cells (ATCC)
Text: More specifically, this in vitro bioassay is used to determine the efficacy (fraction of maximal response) of the compound by comparing the data for this compound with those of the reference compound ICI 182,780 (fulvestrant) in the same test (downregulation of fulvestrant is 100% by definition).
A more detailed description of the method used is as follows.
Cell culture. The human epithelial breast cancer cell line T47D (origin: ATCC) was routinely maintained in a 1:1 mixture of Ham's F12 medium and Dulbecco's Modified Eagle Medium (Gibco) enriched with 5% fetal calf serum (Hyclone), 10 mM HEPES pH 7.5 and 100 μg/ml penicillin-streptomycin solution. Cells were grown in 80 cm2 culture flasks (Nunc, Roskilde, Denmark) and kept in an atmosphere of 5% CO2-95% air at 37 degrees Celsius. Cells were subcultured when they reached about 80-90% confluence, resulting in one passage a week. Subculturing includes detaching the cells using Cell Dissociation Buffer [Sigma] and subsequent inoculation at 1:5 or 1:10 in a new Roux flask (175 cc) and\or plating out in Nunclon™ Surface 96 wells microplates. The culture medium needs to be refreshed on day three or four of the incubation, if applicable.
Determination of ERα protein levels: T47D cells in the microplates are incubated with 1E-5 M test compound for 24 hours. The supernatant in all wells is carefully aspirated. […]

Question: Which results are given for “4-(3-(2-chlorophenyl)-4-(4-(1-propylazetidin-3-yloxy)phenyl)isoxazol-5-yl)-phenol hydrochloride [compound 7au]”?
Answer: ERα pIC50 [1]: 9.0; DR (%) [2]: 89%
